Like-named read-outs stand apart in the source and are kept apart here.

Amino acid sequences for entries named in this document (tags omitted). A change or cut given only in a name is not applied to a line headed by its entry.
UniProt P41146: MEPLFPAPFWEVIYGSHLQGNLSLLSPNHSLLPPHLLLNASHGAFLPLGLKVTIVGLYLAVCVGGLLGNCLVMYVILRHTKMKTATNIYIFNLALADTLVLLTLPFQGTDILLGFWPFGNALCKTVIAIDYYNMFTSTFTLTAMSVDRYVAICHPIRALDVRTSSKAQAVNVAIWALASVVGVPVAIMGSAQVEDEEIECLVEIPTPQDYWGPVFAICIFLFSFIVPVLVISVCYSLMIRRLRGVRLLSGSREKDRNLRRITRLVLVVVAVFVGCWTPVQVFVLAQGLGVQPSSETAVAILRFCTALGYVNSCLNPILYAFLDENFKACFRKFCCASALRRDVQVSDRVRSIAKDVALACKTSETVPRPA
UniProt P35372, whole entry, looked up: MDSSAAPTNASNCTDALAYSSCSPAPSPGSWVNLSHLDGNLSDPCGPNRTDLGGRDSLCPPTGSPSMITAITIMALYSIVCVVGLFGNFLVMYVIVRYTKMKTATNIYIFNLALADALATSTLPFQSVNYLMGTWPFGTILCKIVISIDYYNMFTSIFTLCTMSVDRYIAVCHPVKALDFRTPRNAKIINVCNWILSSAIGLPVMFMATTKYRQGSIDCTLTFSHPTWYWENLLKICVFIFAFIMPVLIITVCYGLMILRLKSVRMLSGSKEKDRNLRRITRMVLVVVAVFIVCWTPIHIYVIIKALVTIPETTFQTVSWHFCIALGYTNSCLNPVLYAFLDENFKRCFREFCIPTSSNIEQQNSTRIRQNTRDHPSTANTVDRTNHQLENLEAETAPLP

One test deals with ORL1 receptor (Homo sapiens, UniProt P41146). The test is described as follows: ORL1 receptor binding assay with 3H-nociceptin/orphanin FQ, membranes of recombinant CHO-ORL1 cells.
The target of another test is human μ-opiate receptor (Homo sapiens, UniProt P35372). Nature of the test: μ-opiate receptor binding, [3H]-naloxone displacement, CHO-K1 membrane preparation.
[1] abbreviates: read-out: ORL1 human Ki, No. 1-49.

A word on the Ki: it is a dissociation constant, usually derived from enzyme kinetics or from competition with a known ligand. `CN(C)C1(c2cccc(F)c2)CCC2(CC1)c1[nH]c3ccccc3c1CCN2C(=O)/C=C/c1ccccc1` (stereo not shown): the ORL1/μ ratio on ORL1 receptor (No. 50-145) was 21.43. The Ki at ORL1 receptor (read-out: ORL1, Ki, No. 50-145) was 1.4 nM; at human μ-opiate receptor (read-out: μ, Ki, No. 50-145), 30 nM.

Consider `COc1ccccc1C(=O)N1CCc2c([nH]c3ccccc23)C12CCC(c1ccccc1)(N(C)C)CC2` (stereo not shown), for which the ORL1/μ ratio on ORL1 receptor (No. 50-145) worked out at 0.43. In addition, the inhibition constant (Ki) came to 46 nM at ORL1 receptor (read-out: ORL1, Ki, No. 50-145) and 20 nM on human μ-opiate receptor (read-out: μ, Ki, No. 50-145).

With `c1ccc(C2(N3CCCC3)CCC3(CC2)OCCc2c3[nH]c3ccccc23)cc1` (stereo not shown), the “ORL1/μ Ratio calculated as Ki(μ)/Ki(ORL1)” value (shortened to “ORL1/μ Ratio calculated”) on ORL1 receptor (No. 1-49) was 0.31. Besides, the Ki is 3.5 nM on ORL1 receptor (setting [1]) and 1.1 nM on human μ-opiate receptor (read-out: μ Ki, No. 1-49).

With `COC(=O)c1ccc2[nH]c3c(c2c1)CCOC31CCC(c2ccccc2)(N(C)C)CC1` (stereo not shown), on ORL1 receptor, the “ORL-1 [1 μM], % inhibition” value is listed as 11%. For the same compound, the “μ-opiate-receptor [1 μM], % inhibition” value at human μ-opiate receptor amounted to 74%.

Consider `CN(C)C1(c2ccccc2)CCC2(CC1)c1[nH]c3ccccc3c1CCN2C(=O)C1CCCC1` (stereo not shown), for which the ORL1/μ ratio at ORL1 receptor (No. 50-145) worked out at 2.90. Moreover, the Ki on ORL1 receptor (read-out: ORL1, Ki, No. 50-145) was determined as 10 nM; at human μ-opiate receptor (read-out: μ, Ki, No. 50-145) it was 29 nM.

As to `CN(C)C1(c2ccccc2)CCC2(CC1)c1[nH]c3ccccc3c1CCN2C(=O)c1ccc(Cl)c(Cl)c1` (stereo not shown), the ORL1/μ ratio on ORL1 receptor (No. 50-145) was found to be 1.64. Besides, the Ki turned out to be 14 nM at ORL1 receptor (read-out: ORL1, Ki, No. 50-145) and 23 nM at human μ-opiate receptor (read-out: μ, Ki, No. 50-145).

On to `CN(C)C1(Cc2ccccc2)CCC2(CC1)c1[nH]c3ccccc3c1CCN2C(=O)c1ccccc1C(F)(F)F` (stereo not shown), for which the ORL1/μ ratio at ORL1 receptor (No. 50-145) turned out to be 0.95. In addition, the Ki turned out to be 19 nM on ORL1 receptor (read-out: ORL1, Ki, No. 50-145) and 18 nM at human μ-opiate receptor (read-out: μ, Ki, No. 50-145).

In the case of `CN(C)C1(c2cccc(F)c2)CCC2(CC1)c1[nH]c3ccccc3c1CCN2C(=O)c1c(F)cccc1C(F)(F)F` (stereo not shown), at ORL1 receptor (No. 50-145), the ORL1/μ ratio is on record as 0.67. Also, the inhibitory constant (Ki) on ORL1 receptor (read-out: ORL1, Ki, No. 50-145) came out at 5.4 nM; on human μ-opiate receptor (read-out: μ, Ki, No. 50-145), 3.6 nM.

Take `CN(C)C1(c2ccccc2)CCC2(CC1)OCCc1c2[nH]c2ccc(-c3cnn(Cc4ccccc4)c3)cc12` (stereo not shown): the “ORL1/μ Ratio calculated” value at ORL1 receptor (No. 1-49) is given as 2.73. Also, the inhibition constant Ki on ORL1 receptor (setting [1]) was 4.4 nM; on human μ-opiate receptor (read-out: μ Ki, No. 1-49), 12 nM.

`CN(C)C1(c2cccc(F)c2)CCC2(CC1)c1[nH]c3ccccc3c1CCN2C(=O)C1CCCCC1` (stereo not shown): the ORL1/μ ratio on ORL1 receptor (No. 50-145) was found to be 2.60. The Ki at ORL1 receptor (read-out: ORL1, Ki, No. 50-145) is 25 nM; at human μ-opiate receptor (read-out: μ, Ki, No. 50-145) it was 65 nM.

With `CN(C)C1(c2ccccc2)CCC2(CC1)c1[nH]c3ccccc3c1CCN2C(=O)c1ccccc1F` (stereo not shown), at ORL1 receptor (No. 50-145), the ORL1/μ ratio is on record as 0.47. In addition, the Ki was determined as 18 nM on ORL1 receptor (read-out: ORL1, Ki, No. 50-145) and 8.4 nM on human μ-opiate receptor (read-out: μ, Ki, No. 50-145).

For the compound `COc1cc(C(=O)N2CCc3c([nH]c4ccccc34)C23CCC(c2cccc(F)c2)(N(C)C)CC3)cc(OC)c1OC` (stereo not shown), on ORL1 receptor (No. 50-145), the ORL1/μ ratio was 1.21. Moreover, the Ki on ORL1 receptor (read-out: ORL1, Ki, No. 50-145) was determined as 19 nM; on human μ-opiate receptor (read-out: μ, Ki, No. 50-145) it was 23 nM.

Turning to `CN(C)C1(c2cccc(F)c2)CCC2(CC1)c1[nH]c3ccccc3c1CCN2C(=O)c1ccc(F)c(C(F)(F)F)c1` (stereo not shown), the ORL1/μ ratio at ORL1 receptor (No. 50-145) is on record as 1.28. Moreover, the Ki stood at 7.1 nM at ORL1 receptor (read-out: ORL1, Ki, No. 50-145) and 9.1 nM on human μ-opiate receptor (read-out: μ, Ki, No. 50-145).

With `CN(C)C1(c2ccccc2)CCC2(CC1)c1[nH]c3ccccc3c1CCN2C(=O)Cc1cccs1` (stereo not shown), the ORL1/μ ratio at ORL1 receptor (No. 50-145) was found to be 0.48. Also, the Ki at ORL1 receptor (read-out: ORL1, Ki, No. 50-145) came to 6.9 nM; at human μ-opiate receptor (read-out: μ, Ki, No. 50-145), 3.3 nM.

Turning to `CN(C)C1(c2cccc(O)c2)CCC2(CC1)OCCc1c2[nH]c2ccccc12` (stereo not shown), the “ORL1/μ Ratio calculated” value on ORL1 receptor (No. 1-49) was 0.66. Besides, the Ki at ORL1 receptor (setting [1]) stood at 14 nM; at human μ-opiate receptor (read-out: μ Ki, No. 1-49) it was 9 nM.

In the case of `CCCCC(=O)N1CCc2c([nH]c3ccccc23)C12CCC(Cc1ccccc1)(N(C)C)CC2` (stereo not shown), on ORL1 receptor (No. 50-145), the ORL1/μ ratio was found to be 0.63. Besides, the inhibition constant (Ki) on ORL1 receptor (read-out: ORL1, Ki, No. 50-145) came out at 4.3 nM; at human μ-opiate receptor (read-out: μ, Ki, No. 50-145), 2.7 nM.

For `CC1Cc2c([nH]c3ccc(F)cc23)C2(CCC(c3ccccc3)(N(C)C)CC2)O1` (stereo not shown), on ORL1 receptor (No. 1-49), the “ORL1/μ Ratio calculated” value is on record as 0.73. Moreover, the Ki at ORL1 receptor (setting [1]) worked out at 80 nM; on human μ-opiate receptor (read-out: μ Ki, No. 1-49) it was 60 nM.

Turning to `CC(C)CC(=O)N1CCc2c([nH]c3ccccc23)C12CCC(c1ccccc1)(N(C)C)CC2` (stereo not shown), at ORL1 receptor (No. 50-145), the ORL1/μ ratio amounted to 2.68. The Ki amounted to 4.1 nM at ORL1 receptor (read-out: ORL1, Ki, No. 50-145) and 11 nM at human μ-opiate receptor (read-out: μ, Ki, No. 50-145).

As for `CN(C)C1(c2cccc(F)c2)CCC2(CC1)c1[nH]c3ccccc3c1CCN2C(=O)c1ccc(Cl)cc1Cl` (stereo not shown), the ORL1/μ ratio at ORL1 receptor (No. 50-145) is reported as 0.86. For the same compound, the inhibition constant Ki on ORL1 receptor (read-out: ORL1, Ki, No. 50-145) turned out to be 22 nM; on human μ-opiate receptor (read-out: μ, Ki, No. 50-145) it was 19 nM.

In the case of `COC(=O)C1Cc2c([nH]c3ccccc23)C2(CCC(c3ccccc3)(N(C)C)CC2)N1` (stereo not shown), the “ORL1/μ Ratio calculated” value at ORL1 receptor (No. 1-49) is 2.67. For the same compound, the inhibition constant (Ki) on ORL1 receptor (setting [1]) was found to be 0.9 nM; at human μ-opiate receptor (read-out: μ Ki, No. 1-49), 2.3 nM.

In the case of `CC(=O)N1CCc2c([nH]c3cc(F)ccc23)C12CCC(c1ccccc1)(N(C)C)CC2` (stereo not shown), the “ORL1/μ Ratio calculated” value on ORL1 receptor (No. 1-49) is 1.41. Besides, the inhibitory constant (Ki) came out at 1.1 nM at ORL1 receptor (setting [1]) and 1.6 nM at human μ-opiate receptor (read-out: μ Ki, No. 1-49).

In the case of `CN(C)C1(c2ccccc2)CCC2(CC1)OCCc1c2[nH]c2cc(Cl)c(Cl)cc12` (stereo not shown), the “ORL-1 [1 μM], % inhibition” value at ORL1 receptor was 43%. The “μ-opiate-receptor [1 μM], % inhibition” value on human μ-opiate receptor turned out to be 100%.

Consider `CN(C)C1(c2ccccc2)CCC2(CC1)c1[nH]c3ccccc3c1CCN2C(=O)c1cc(F)cc(F)c1` (stereo not shown), for which the ORL1/μ ratio on ORL1 receptor (No. 50-145) amounted to 0.95. Also, the Ki on ORL1 receptor (read-out: ORL1, Ki, No. 50-145) worked out at 2 nM; on human μ-opiate receptor (read-out: μ, Ki, No. 50-145) it was 1.9 nM.

Source of the values: patent US8034936B2, “Spirocyclic cyclohexane compounds useful to treat substance dependency” (Gruenenthal GmbH, priority 2005, dated 2011).
